Measurements reported in IntAct's records for PubMed 35512704.

B1: RAC-alpha serine/threonine-protein kinase (Homo sapiens), P31749 (parent)
chain: MSDVAIVKEGWLHKRGEYIKTWRPRYFLLKNDGTFIGYKERPQDVDQREAPLNNFSVAQCQLMKTERPRPNTFIIRCLQWTTVIERTFHVETPEEREEWTTAIQTVADGLKKQEEEEMDFRSGSPSDNSGAEEMEVSLAKPKHRVTMNEFEYLKLLGKGTFGKVILVKEKATGRYYAMKILKKEVIVAKDEVAHTLTENRVLQNSRHPFLTALKYSFQTHDRLCFVMEYANGGELFFHLSRERVFSEDRARFYGAEIVSALDYLHSEKNVVYRDLKLENLMLDKDGHIKITDFGLCKEGIKDGATMKTFCGTPEYLAPEVLEDNDYGRAVDWWGLGVVMYEMMCGRLPFYNQDHEKLFELILMEEIRFPRTLGPEAKSLLSGLLKKDPKQRLGGGSEDAKEIMQHRFFAGIVWQHVYEKKLSPPFKPQVTSETDTRYFDEEFTAQMITITPPDQDDSMECVDSERRPHFPQFSYSASGTA
partner: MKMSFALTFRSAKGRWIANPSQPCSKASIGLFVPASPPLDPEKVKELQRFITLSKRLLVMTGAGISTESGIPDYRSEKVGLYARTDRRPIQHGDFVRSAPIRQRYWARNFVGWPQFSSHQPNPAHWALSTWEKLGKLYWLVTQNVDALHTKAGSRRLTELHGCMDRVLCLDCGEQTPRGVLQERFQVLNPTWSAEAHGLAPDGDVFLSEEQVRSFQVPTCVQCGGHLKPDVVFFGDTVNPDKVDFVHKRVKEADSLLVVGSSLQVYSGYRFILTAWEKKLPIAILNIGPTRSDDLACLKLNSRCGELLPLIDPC
B2: RAC-alpha serine/threonine-protein kinase (Homo sapiens), P31749 (parent)
chain: B1 chain
partner: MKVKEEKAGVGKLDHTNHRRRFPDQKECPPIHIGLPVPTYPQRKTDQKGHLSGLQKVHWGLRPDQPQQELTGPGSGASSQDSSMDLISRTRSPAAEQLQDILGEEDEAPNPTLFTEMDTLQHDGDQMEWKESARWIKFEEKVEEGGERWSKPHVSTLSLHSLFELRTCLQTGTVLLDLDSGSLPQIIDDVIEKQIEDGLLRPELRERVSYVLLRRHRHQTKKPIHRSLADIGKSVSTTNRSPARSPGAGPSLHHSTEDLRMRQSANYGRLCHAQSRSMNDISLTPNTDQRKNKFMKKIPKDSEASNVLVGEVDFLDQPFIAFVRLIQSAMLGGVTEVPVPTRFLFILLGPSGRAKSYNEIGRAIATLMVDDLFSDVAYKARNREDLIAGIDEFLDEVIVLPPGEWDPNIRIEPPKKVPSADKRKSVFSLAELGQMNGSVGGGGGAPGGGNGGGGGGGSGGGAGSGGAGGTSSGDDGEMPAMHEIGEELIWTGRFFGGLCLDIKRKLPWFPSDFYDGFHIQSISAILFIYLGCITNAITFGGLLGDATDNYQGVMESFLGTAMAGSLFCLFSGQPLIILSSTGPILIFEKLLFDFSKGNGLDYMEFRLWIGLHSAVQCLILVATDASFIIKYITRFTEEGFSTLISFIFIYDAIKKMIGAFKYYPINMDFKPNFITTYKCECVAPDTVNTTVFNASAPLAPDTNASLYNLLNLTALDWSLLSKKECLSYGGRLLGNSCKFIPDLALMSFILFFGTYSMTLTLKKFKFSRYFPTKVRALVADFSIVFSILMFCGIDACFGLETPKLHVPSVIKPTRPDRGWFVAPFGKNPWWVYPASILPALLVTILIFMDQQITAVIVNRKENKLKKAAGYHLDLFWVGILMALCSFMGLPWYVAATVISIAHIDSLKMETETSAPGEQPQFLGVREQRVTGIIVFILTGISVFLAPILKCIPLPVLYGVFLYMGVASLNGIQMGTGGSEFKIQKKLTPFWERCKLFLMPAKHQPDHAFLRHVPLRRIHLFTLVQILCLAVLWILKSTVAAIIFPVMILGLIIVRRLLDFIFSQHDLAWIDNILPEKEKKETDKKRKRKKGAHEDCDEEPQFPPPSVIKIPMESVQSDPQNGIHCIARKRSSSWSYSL
B3: RAC-alpha serine/threonine-protein kinase (Homo sapiens), P31749 (parent)
chain: B1 chain
partner: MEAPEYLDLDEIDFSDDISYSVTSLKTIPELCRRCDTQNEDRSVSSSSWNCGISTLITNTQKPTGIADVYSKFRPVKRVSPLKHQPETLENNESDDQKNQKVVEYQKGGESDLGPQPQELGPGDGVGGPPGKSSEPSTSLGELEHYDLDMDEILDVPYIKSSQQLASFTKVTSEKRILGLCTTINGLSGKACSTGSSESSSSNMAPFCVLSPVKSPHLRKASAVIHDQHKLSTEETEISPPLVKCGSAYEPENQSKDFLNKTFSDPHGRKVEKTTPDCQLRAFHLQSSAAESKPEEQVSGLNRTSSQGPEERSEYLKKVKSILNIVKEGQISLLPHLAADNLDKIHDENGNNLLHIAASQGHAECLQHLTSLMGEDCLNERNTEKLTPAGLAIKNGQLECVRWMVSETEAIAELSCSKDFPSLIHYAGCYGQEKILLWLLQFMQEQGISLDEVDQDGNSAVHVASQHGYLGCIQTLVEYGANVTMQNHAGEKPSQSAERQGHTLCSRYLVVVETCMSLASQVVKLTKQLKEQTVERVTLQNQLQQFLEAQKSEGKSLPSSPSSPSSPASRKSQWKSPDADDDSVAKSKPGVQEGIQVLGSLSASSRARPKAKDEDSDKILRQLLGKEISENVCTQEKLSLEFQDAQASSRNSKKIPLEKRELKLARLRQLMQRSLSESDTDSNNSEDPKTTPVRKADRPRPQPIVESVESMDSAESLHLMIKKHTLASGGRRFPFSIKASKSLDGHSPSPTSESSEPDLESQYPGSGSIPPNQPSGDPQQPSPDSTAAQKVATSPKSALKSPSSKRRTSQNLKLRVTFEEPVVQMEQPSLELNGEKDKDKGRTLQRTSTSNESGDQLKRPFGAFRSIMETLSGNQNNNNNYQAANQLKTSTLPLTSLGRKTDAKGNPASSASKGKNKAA
B4: RAC-alpha serine/threonine-protein kinase (Homo sapiens), P31749 (parent)
chain: B1 chain
partner: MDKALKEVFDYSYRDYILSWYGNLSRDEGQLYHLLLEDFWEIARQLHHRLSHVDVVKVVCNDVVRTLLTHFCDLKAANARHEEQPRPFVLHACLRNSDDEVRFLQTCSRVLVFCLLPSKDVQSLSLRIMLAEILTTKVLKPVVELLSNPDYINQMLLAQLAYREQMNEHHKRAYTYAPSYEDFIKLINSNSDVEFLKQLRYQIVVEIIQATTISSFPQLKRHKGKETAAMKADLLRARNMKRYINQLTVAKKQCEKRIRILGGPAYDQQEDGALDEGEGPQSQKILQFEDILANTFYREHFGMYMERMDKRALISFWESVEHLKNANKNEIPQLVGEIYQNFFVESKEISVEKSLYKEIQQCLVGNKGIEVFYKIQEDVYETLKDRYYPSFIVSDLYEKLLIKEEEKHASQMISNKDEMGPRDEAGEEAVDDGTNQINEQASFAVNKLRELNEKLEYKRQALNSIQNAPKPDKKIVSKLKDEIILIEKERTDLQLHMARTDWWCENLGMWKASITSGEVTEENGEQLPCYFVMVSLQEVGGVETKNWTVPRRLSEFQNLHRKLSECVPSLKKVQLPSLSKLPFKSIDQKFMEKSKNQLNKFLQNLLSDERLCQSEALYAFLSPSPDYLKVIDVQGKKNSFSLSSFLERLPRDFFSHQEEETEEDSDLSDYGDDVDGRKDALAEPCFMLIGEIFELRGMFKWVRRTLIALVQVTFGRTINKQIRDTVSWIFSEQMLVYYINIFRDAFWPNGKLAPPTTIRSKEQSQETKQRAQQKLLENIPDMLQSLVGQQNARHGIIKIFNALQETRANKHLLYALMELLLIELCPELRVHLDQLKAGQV
B5: RAC-alpha serine/threonine-protein kinase (Homo sapiens), P31749 (parent)
chain: B1 chain
partner: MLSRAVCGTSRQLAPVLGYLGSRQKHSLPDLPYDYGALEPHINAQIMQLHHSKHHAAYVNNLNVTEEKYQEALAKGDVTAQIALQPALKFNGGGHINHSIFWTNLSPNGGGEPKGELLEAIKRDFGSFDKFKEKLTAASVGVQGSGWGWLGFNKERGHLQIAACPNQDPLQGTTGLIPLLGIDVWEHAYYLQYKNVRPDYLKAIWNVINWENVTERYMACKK
B6: RAC-alpha serine/threonine-protein kinase (Homo sapiens), P31749 (parent)
chain: B1 chain
partner: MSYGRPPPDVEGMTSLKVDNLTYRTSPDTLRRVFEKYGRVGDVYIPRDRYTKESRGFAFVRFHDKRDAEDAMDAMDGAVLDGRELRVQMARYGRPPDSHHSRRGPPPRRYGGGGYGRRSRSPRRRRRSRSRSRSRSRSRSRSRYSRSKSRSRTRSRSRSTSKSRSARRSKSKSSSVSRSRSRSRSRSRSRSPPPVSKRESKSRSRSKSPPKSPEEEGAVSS

Variants of: B1
Conditions: with sir4_human SIRT4, Q9Y6E7
With E17K the “effect of a mutation on the interaction” value was “causing an interaction”.

Variants of: B1
Conditions: with sir4_human SIRT4, Q9Y6E7
Remark: another data set of the same source
With E17K the “effect of a mutation on the interaction” value was “increasing interaction strength”.

Variants of: B2
Conditions: with s4a5_human SLC4A5, Q9BY07
With E17K the “effect of a mutation on the interaction” value was “causing an interaction”.

Variants of: B3
Conditions: with sncap_human SNCAIP
E17K was tested, and the “effect of a mutation on the interaction” value was “causing an interaction”.

Variants of: B4
Conditions: with snx25_human SNX25, Q9H3E2
In the case of E17K, the “effect of a mutation on the interaction” value is reported as “causing an interaction”.

Variants of: B5
Conditions: with sodm_human SOD2, P04179
E17K was tested, and the “effect of a mutation on the interaction” value was “causing an interaction”.

Variants of: B6
Conditions: with srsf2_human SRSF2, Q01130
In the case of E17K, the “effect of a mutation on the interaction” value is reported as “causing an interaction”.
